Structures are written as SMILES. This is a selection; strong and weak results do not stand in their true shares. Some salts or complexes appear as unconnected parts, following the source record. The source made the active and inactive calls.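 Rule for the calls: active = percent activation above the mean of all tested compounds plus 3 SD (cut at about 19% in these data); inactive = the rest.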

The target in the assay is cAMP-dependent protein kinase type I-alpha regulatory subunit (Bos taurus) + cAMP-dependent protein kinase catalytic subunit beta (Mus musculus) (UniProt P00514+P68181). Put plainly: activators of PKA-R1A holoenzyme, primary screen, biochemical, fluorescence polarization, Cy5-IP20, bovine R1A, mouse PKAc (AID 504707).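 Note: higher means more PKAc released from R1A so a rise in polarization.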 The conditions noted are these: PKA-R1A dissociation, at 11.4 µM, active compounds read high, scaled: DMSO 0%, 113 µM cGMP 100%.
As for `CCOP(C)(=S)SCC(=O)NC(C)(CC)C(=O)O` (centres undefined), the activation was inactive: 1.33%.
Turning to `CP(=O)(Nc1ccc(SC(F)(F)F)cc1)Oc1ccc(F)cc1` (centres undefined), the activation was inactive: -3.38%.
With `Cc1ccccc1NP(C)(=O)Nc1ccccc1C`, the activation is inactive: -1.25%.
Then `CP(=O)(Nc1ccc2c(c1)OCCO2)Oc1ccccc1` (centres undefined), with inactive: 5.07%; and `COc1ccc(NP(C)(=O)Oc2ccccc2OC)cc1` (centres undefined), with inactive: 2.58%.
Turning to `CN(C)CCOC(=O)C(O)(c1ccccc1)C1CCCCC1` (centres undefined), the activation is inactive: -1.61%.
Turning to `COc1ccc(OP(C)(=O)Nc2cccc(Br)c2)cc1` (centres undefined), the activation is inactive: -12.6%.
Then `Cc1c(C(c2ccc3c(c2)OCO3)c2c(C)n(C)n(-c3ccccc3)c2=O)c(=O)n(-c2ccccc2)n1C.O=[N+]([O-])c1cc([N+](=O)[O-])c(O)c([N+](=O)[O-])c1`, with inactive: -1.57%; and `Cc1cc(-c2cccc3ccccc23)c(C)cn1.O=[N+]([O-])c1cc([N+](=O)[O-])c(O)c([N+](=O)[O-])c1`, with inactive: -12.1%; and `O=[N+]([O-])c1cc([N+](=O)[O-])c(NCC2CCS(=O)(=O)C2)c([N+](=O)[O-])c1` (centres undefined), with inactive: 3.54%.
Then `O=[N+]([O-])c1ccc(OP2(=O)COCCO2)cc1` (centres undefined), with inactive: -4.69%; and `COc1ccc(OP(C)(=O)Nc2ccc(SC(F)(F)F)cc2)cc1` (centres undefined), with inactive: 11.1%.
Then `CCOC(=O)c1ccc(NP(C)(=O)Oc2ccc(F)cc2)cc1` (centres undefined), with inactive: -4.24%.
`CCCCCOc1ccc(NP(C)(=O)Oc2ccc(Cl)cc2Cl)cc1` (centres undefined): the activation is inactive: -12.6%.
Then `O=[N+]([O-])c1cc([N+](=O)[O-])c(OC2CCCCC2O)c([N+](=O)[O-])c1` (centres undefined), with inactive: -3.56%; and `CP(=O)(Nc1ccccc1)Oc1ccc(F)cc1` (centres undefined), with inactive: -8.94%.
Then `CCN(CC)CCCOC(=O)C(O)(c1ccccc1)C1CCCCC1` (centres undefined), with inactive: -3.78%; and `Cc1c([N+](=O)[O-])cc([N+](=O)[O-])c(Br)c1[N+](=O)[O-]`, with inactive: -4.17%; and `CC(C)c1ccc(OP(C)(=O)Nc2ccc(SC(F)(F)F)cc2)cc1` (centres undefined), with inactive: -21.7%.
Then `CP(=O)(Nc1ccccc1F)Oc1ccccc1` (centres undefined), with inactive: -1.38%; and `O=[N+]([O-])c1cc([N+](=O)[O-])c(Nc2ccc(Cl)cc2)c([N+](=O)[O-])c1`, with inactive: -0.38%.
Regarding `COc1ccc2c(c1O)-c1c(O)c(OC)cc3c1[C@H](C2)[N+](C)(C)CC3.O=[N+]([O-])c1cc([N+](=O)[O-])c([O-])c([N+](=O)[O-])c1[O-]`, the activation is inactive: -1.85%.
With `O=C(OCCN1CCN(CCOCc2ccccc2)CC1)C(O)(c1ccccc1)c1ccccc1`, the activation was inactive: -0.16%.
Then `O=C(OC1CN2CCC1CC2)c1ccc([N+](=O)[O-])cc1` (centres undefined), with inactive: -9.53%.
Regarding `CN(C)CCOC(=O)C(O)(c1ccccc1)C1CCCC1` (centres undefined), the activation was inactive: -9.02%.
Turning to `COc1ccc(OP(C)(=O)Nc2ccccn2)cc1` (centres undefined), the activation was inactive: 12.2%.
As for `COc1ccccc1OP(C)(=O)Nc1ccc(Br)cc1` (centres undefined), the activation is inactive: 4.72%.
Then `CCc1ccc(OP(C)(=O)O)cc1`, with inactive: -10.1%; and `CP(=O)(Nc1ccccn1)Oc1ccccc1` (centres undefined), with inactive: -0.91%; and `COc1ccccc1OP(C)(=O)Nc1ccc(C)cc1C` (centres undefined), with inactive: 7.69%.
Then `O=[N+]([O-])c1cc([N+](=O)[O-])c(Nc2ccccn2)c([N+](=O)[O-])c1`, with inactive: 0.1%; and `Cc1c(NP(C)(=O)Oc2ccc(C(C)C)cc2)c(=O)n(-c2ccccc2)n1C` (centres undefined), with inactive: 7.22%; and `COc1ccc(OP(C)(=O)Nc2ccccc2Br)cc1` (centres undefined), with inactive: -17%.
Consider `COc1ccccc1OP(C)(=O)Nc1ccc(C)c(C)c1` (centres undefined), for which the activation was inactive: -0.81%.
Then `O=C1C(O)=C([N+](=O)[O-])C(=O)C(O)=C1[N+](=O)[O-]`, with inactive: 6.25%.
The result for `Cc1cc(C)cc(OP(C)(=O)Nc2cccc(C(F)(F)F)c2)c1` (centres undefined) reads inactive: -2.47%; that for `CP(=O)(OCCOc1ccccc1)OCCOc1ccccc1`, inactive: -4.25%.
On to `CCCCCCCCCCCCCCCC1C[N+](C)(C)CCOP(C)(=O)O1` (centres undefined), for which the activation was inactive: -10.2%.
As for `CP(=O)(Nc1ccc(Cl)cc1Cl)Oc1ccccc1` (centres undefined), the activation was inactive: -3.8%.
`CP(=O)(OC12CC3CC(CC(C3)C1)C2)OC12CC3CC(CC(C3)C1)C2`: the activation was inactive: -9.45%.
`CCOC(=O)c1ccc(NP(C)(=O)Oc2ccc(Cl)cc2)cc1` (centres undefined): the activation is inactive: 3.25%.
Then `CP(=O)(Oc1ccccc1)N1CCOC1=O` (centres undefined), with inactive: -2.86%; and `CCc1ccc(OP(C)(=O)Nc2cccnc2)cc1` (centres undefined), with inactive: 1.68%.
Then `COc1ccccc1OP(C)(=O)Nc1c(C)n(C)n(-c2ccccc2)c1=O` (centres undefined), with inactive: 3.28%; and `O=C(OCCCN1CCCC1)C(O)(c1ccccc1)C1CCCCC1` (centres undefined), with inactive: -9.41%.
Then `CCN(CC)CC(O)COC(=O)C(O)(c1ccccc1)C1CCCCC1` (centres undefined), with inactive: -1.42%; and `COc1ccc(OP(C)(=O)Nc2ccc(Br)cc2)cc1` (centres undefined), with inactive: -0.52%.
As to `CN(C)C(=O)c1c([N+](=O)[O-])cc([N+](=O)[O-])cc1[N+](=O)[O-]`, the activation is inactive: -14%.
Turning to `CP(=O)(Nc1ccc(Cl)cc1)Oc1ccc(F)cc1` (centres undefined), the activation is inactive: -4.46%.
Consider `CC(C)(C)c1ccc(OP(C)(=O)O)cc1`, for which the activation is inactive: -5.36%.
As for `COc1ccccc1OP(C)(=O)Nc1ccccc1Br` (centres undefined), the activation was inactive: -3.31%.
Regarding `CCc1ccc(OP(C)(=O)N2CCN(c3ccc([N+](=O)[O-])cc3)CC2)cc1` (centres undefined), the activation was inactive: -4.51%.
With `CP(=O)(NC(=O)Nc1ccccc1)Oc1ccccc1` (centres undefined), the activation was inactive: -10.2%.
The result for `Cc1cc(C)cc(OP(C)(=O)Nc2ccc(SC(F)(F)F)cc2)c1` (centres undefined) reads inactive: -19.1%; that for `Cc1ccc(Nc2c([N+](=O)[O-])cc([N+](=O)[O-])cc2[N+](=O)[O-])cc1`, inactive: -7.17%.
Then `Cc1cccc(C)c1OP(C)(=O)Nc1ccc(SC(F)(F)F)cc1` (centres undefined), with inactive: -1.88%; and `CP(=O)(Oc1ccccc1)OC(c1ccccc1)C(F)(F)F` (centres undefined), with inactive: -7.69%.
Then `CP(=O)(Nc1ccccn1)Oc1ccc(Cl)cc1` (centres undefined), with inactive: 8.44%.
With `CCOP(C)(=S)SCC(=O)NC(C)C(=O)O` (centres undefined), the activation was inactive: 4.91%.

(Values after PubChem BioAssay AID504707 (The Scripps Research Institute Molecular Screening Center, 2011).)
